Test results as given in publication PMC3376891 (Cell, 2012).

Target: T1, PepNuoC (Escherichia coli, UniProt P33599)
T1 chain: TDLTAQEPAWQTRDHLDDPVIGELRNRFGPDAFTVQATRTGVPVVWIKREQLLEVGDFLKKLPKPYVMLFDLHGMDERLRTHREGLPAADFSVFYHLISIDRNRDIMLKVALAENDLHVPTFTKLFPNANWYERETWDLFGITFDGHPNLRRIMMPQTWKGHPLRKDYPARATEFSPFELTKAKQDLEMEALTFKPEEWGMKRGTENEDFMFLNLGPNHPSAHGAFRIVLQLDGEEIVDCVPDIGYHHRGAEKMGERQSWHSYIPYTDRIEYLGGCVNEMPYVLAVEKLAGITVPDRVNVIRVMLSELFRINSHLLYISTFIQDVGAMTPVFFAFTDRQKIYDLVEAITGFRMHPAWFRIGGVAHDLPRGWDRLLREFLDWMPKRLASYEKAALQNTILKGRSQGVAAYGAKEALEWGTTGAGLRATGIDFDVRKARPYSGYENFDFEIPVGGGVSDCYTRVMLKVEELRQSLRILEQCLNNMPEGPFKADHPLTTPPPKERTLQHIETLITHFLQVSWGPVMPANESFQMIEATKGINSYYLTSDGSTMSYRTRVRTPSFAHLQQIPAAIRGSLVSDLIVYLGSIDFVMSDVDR
Test: SPR

B1: Hsp33 (protein)
chain: MPQHDQLHRYLFENFAVRGELVTVSETLQQILENHDYPQPVKNVLAELLVATSLLTATLKFDGDITVQLQGDGPMNLAVINGNNNQQMRGVARVQGEIPENADLKTLVGNGYVVITITPSEGERYQGVVGLEGDTLAACLEDYFMRSEQLPTRLFIRTGDVDGKPAAGGMLLQVMPAQNAQQDDFDHLATLTETIKTEELLTLPANEVLWRLYHEEEVTVYDPQDVEFKCTCSRERCADALKTLPDEEVDSILAEDGEIDMHCDYCGNHYLFNAMDIAEIRNNASPADPQVH
modifications: oxidized Hsp33
B1 showed a Kd of 35 nM.
